Reference: patent publication US20130203959A1

Biological target: GLP-1R
Test: cell-based or functional assay

Work on “Exendin-4 (from UniProt P26349) (peptide)” yielded an EC50 of intracellular cAMP production in BHK-GLP-1R cells of 17 pM.
